## Apparent affinities of Ab-95 variants for a coronavirus HR2 peptide

Reference: Engelhart et al. 2022, doi:10.1038/s41597-022-01779-4. File: FLAb, binding data.

All variants were tested on one target, the spike HR2 peptide PDVDLGDISGINAS (SARS-CoV-2).

Each scFv is VH, the linker GGGGSGGGGSGGGGS, VL, as in the parent Ab-95, and differs from it in the CDRs of the light chain only.
VH: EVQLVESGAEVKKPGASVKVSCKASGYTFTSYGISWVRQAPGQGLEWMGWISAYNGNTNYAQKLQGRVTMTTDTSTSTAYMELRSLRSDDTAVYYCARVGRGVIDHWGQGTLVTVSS
VL: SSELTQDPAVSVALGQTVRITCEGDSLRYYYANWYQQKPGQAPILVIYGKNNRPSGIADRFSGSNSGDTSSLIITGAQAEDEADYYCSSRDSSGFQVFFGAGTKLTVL

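Phage display of a naive human antibody library on the peptide gave the parent. AAYL52 was designed without a model: most single CDR substitutions and a random sample of double and triple ones. AlphaSeq pools MATa yeast showing the antibodies with MATalpha yeast showing the peptide. The frequency of each diploid, read from paired DNA barcodes, reflects how well the two displayed proteins bind. Read counts were normalised to the haploid input and turned into Kd by a linear fit to BCL2-family pairs of known affinity, for each replicate. The assay was run in three technical replicates.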

The parent's light chain CDRs are EGDSLRYYYAN, GKNNRPS, SSRDSSGFQVF; each variant's own CDRs replace them letter for letter.
This list gathers variants with a substitution at G94 (VL, numbered from residue 1).
Kd is apparent (estimated from mating counts) and averaged on the log scale over replicates with a signal. Smaller is tighter.
An entry "no signal" has no value in the source: the pair was not observed among the diploids in any replicate. This suggests poor binding but is not conclusive.
Three control strains display no target. For library AAYL52, 28% of the pairings with them gave a signal, with a median of 8.2 µM and one signal in twenty below 800 nM, so weak values seen in few replicates may be background. The control count says in how many pairings with the empty strains this scFv gave a signal.

Variant EGVSLTYYYAN | GKNNRPS | SSRDSSYFQVF gave 350 nM (3 of 3 replicates; controls 2 of 9).
Variant YGDCLRYYYAN | GKNNRPS | SSRDSSKFQVF gave no signal (0 of 3 replicates; controls 2 of 9).
Variant EGDSLRYYYAN | GKNNRRS | SSRDSSKFQVF gave 760 nM (3 of 3 replicates; controls 2 of 9).
Variant EGDSRRYYYAN | GKNNRPS | SSRDSSNFQVS gave 22 µM (2 of 3 replicates; controls 0 of 9).
Variant EGDSLRYYYAN | GKNDRSS | SSRDSSKFQVF gave no signal (0 of 3 replicates; controls 0 of 9).
Variant EGDSLRYYFAN | GKNNRPE | SSRDSSIFQVF gave 980 nM (3 of 3 replicates; controls 1 of 9).
Variant CGDSLRYYYAN | GKKNRPS | SSRDSSHFQVF gave no signal (0 of 3 replicates; controls 1 of 9).
Variant EGDSLRYYQAN | GKNNSPS | SSRDSSPFQVF gave no signal (0 of 3 replicates; controls 0 of 9).
Variant EGDSLRYYYAN | GKNNWPS | SSRDMSNFQVF gave 3.8 µM (1 of 3 replicates; controls 2 of 9).
Variant FGDSLRYYYAN | GKNNRPI | SSRDSSVFQVF gave 12 µM (3 of 3 replicates; controls 3 of 9).
Variant EGDSLRYYYEN | GKNNRPS | SSRDSSSFQVF gave 4.0 µM (1 of 3 replicates; controls 1 of 9).
Variant EIDSLRYYYAA | GKNNRPS | SSRDSSLFQVF gave 2.2 µM (3 of 3 replicates; controls 4 of 9).
Variant EGRSLRYYYAN | GKDNRPS | SSRDSSDFQVF gave 1.7 µM (2 of 3 replicates; controls 4 of 9).
Variant EGDSLRIYYAN | GKNNRPS | SSRDSSPFQRF gave 11 µM (1 of 3 replicates; controls 0 of 9).
Variant EGDSLRYYYAN | RKCNRPS | SSRDSSSFQVF gave 23 µM (2 of 3 replicates; controls 4 of 9).
Variant EGDSLRYYYAN | GKNNRPS | SSRDSSVFQVF gave 1.3 µM (3 of 3 replicates; controls 2 of 9).
Variant EGDSLRYYYAN | GKDNRPC | SSRDSSKFQVF gave 330 µM (1 of 3 replicates; controls 1 of 9).
Variant EGMSLRYYYAF | GKNNRPS | SSRDSSLFQVF gave 8.4 µM (2 of 3 replicates; controls 2 of 9).
Variant EGDSLRYYYVN | GKNNRPS | SSRDSSNFTVF gave 12 µM (1 of 3 replicates; controls 0 of 9).
Variant EGDSARYYYAN | GKNNRPS | SSRISSTFQVF gave 10 µM (2 of 3 replicates; controls 2 of 9).
Variant EGDSLRYYYAN | GKNNRGS | SSRDASFFQVF gave no signal (0 of 3 replicates; controls 0 of 9).
Variant ETDSLRYYYAN | GKNNRPS | SSRDQSWFQVF gave no signal (0 of 3 replicates; controls 1 of 9).
Variant EGDSLRYYYAN | GKNNRSS | SSLDSSMFQVF gave no signal (0 of 3 replicates; controls 1 of 9).
Variant EDDSLRYYYAN | GKNNCPS | SSRDSSNFQVF gave no signal (0 of 3 replicates; controls 4 of 9).
Variant EGDSLRYYYAN | GKNNRPS | YSRDSSEFQVF gave 950 nM (3 of 3 replicates; controls 4 of 9).
Variant EGDSLRYYYAN | GKNNRPS | SSRDSSMFQVF gave 260 nM (3 of 3 replicates; controls 2 of 9).
Variant EGDSLRYSYAN | GKNNRPS | SSRDSSHFHVF gave 40 nM (3 of 3 replicates; controls 5 of 9).
Variant EGDSLRYYYAN | GKNARPS | SSRDSSVFQVF gave 2.9 µM (2 of 3 replicates; controls 3 of 9).
Variant EGDSLRYYYAN | GKNNRPR | SSRDSSMKQVF gave 1.4 µM (2 of 3 replicates; controls 5 of 9).
Variant EGDSLRYYYAN | GKNNRPS | SWRDSSPAQVF gave 1.1 µM (3 of 3 replicates; controls 4 of 9).
Variant EGDSLRYYYAN | GKNNRVQ | SSRDSSNFQVF gave 260 nM (3 of 3 replicates; controls 2 of 9).
Variant NGDSLRYYYAN | GKNNRPS | SVRDSSVFQVF gave no signal (0 of 3 replicates; controls 3 of 9).